Common to all, as to test: Caliper Kinase Assay
What all share (assay type): biochemical

By UniProt entry, the sequences of proteins in these tests, tags left out.
UniProt P49841, whole entry, species assumed: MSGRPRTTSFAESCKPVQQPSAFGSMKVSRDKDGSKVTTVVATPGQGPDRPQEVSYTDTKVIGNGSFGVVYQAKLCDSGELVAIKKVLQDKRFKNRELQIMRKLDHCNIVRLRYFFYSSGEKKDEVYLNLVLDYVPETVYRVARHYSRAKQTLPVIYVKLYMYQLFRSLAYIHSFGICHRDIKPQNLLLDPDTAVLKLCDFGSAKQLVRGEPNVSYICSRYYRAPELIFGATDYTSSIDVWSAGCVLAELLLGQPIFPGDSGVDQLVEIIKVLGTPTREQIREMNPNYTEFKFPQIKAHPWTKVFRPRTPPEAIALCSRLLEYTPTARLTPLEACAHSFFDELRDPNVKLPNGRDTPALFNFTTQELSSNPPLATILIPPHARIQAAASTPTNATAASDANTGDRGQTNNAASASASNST
UniProt P52333, whole entry, species assumed: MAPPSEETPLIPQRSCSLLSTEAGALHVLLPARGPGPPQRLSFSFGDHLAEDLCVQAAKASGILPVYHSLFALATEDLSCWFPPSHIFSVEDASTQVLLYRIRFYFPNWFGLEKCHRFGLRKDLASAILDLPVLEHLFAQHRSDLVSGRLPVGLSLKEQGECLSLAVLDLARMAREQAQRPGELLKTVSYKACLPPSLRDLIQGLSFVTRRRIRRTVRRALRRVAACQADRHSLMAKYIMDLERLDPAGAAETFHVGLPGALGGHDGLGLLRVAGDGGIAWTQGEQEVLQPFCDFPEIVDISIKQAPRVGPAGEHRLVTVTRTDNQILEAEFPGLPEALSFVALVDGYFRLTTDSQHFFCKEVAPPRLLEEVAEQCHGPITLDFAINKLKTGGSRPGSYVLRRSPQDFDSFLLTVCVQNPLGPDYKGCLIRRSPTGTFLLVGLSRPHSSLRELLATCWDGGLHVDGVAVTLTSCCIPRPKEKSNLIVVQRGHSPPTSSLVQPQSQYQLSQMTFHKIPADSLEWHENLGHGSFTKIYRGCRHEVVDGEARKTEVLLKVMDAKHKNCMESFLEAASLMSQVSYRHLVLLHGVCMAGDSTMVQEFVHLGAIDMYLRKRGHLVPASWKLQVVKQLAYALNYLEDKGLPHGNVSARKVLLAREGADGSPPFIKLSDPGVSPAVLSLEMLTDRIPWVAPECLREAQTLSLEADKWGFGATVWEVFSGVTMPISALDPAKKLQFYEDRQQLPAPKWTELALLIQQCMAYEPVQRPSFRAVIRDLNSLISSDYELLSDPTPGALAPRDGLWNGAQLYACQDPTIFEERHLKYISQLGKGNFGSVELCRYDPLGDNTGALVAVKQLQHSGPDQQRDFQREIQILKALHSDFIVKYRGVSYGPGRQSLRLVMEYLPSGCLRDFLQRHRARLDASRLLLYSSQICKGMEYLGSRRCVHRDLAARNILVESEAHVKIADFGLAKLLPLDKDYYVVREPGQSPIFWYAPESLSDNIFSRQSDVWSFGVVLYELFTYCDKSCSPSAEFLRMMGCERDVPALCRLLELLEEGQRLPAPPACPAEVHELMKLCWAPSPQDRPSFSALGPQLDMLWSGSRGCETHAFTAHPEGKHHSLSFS
UniProt P29597, whole entry, species assumed: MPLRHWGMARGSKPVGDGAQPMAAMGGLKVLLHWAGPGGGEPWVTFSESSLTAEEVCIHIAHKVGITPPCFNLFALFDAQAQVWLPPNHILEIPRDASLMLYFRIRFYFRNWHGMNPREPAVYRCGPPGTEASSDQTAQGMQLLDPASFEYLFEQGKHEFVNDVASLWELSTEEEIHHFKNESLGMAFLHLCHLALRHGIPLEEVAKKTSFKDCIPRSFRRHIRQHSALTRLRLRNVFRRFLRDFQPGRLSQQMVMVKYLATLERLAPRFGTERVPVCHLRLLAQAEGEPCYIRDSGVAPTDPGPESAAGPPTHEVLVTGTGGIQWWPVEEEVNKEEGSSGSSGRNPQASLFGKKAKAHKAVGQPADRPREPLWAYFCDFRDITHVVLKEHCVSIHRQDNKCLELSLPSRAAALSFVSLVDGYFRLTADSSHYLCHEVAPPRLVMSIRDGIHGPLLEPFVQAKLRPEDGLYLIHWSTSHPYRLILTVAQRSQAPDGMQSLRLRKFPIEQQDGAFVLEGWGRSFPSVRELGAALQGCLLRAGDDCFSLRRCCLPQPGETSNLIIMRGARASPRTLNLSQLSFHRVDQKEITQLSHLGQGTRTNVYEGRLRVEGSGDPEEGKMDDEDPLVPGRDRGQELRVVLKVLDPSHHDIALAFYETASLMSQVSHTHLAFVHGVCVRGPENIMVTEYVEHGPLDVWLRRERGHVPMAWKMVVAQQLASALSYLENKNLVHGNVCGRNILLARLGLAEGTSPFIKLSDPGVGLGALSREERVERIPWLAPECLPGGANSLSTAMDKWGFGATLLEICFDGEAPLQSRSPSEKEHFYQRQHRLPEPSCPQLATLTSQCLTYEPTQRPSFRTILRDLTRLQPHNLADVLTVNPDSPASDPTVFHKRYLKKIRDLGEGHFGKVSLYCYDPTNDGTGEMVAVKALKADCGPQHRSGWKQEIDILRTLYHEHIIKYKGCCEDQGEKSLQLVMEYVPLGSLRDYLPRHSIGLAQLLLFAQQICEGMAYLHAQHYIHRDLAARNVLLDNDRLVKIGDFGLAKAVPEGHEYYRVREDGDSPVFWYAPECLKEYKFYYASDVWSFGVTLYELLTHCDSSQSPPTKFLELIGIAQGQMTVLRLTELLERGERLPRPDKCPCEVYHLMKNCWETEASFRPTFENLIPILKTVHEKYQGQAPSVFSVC
UniProt Q08881, whole entry, species assumed: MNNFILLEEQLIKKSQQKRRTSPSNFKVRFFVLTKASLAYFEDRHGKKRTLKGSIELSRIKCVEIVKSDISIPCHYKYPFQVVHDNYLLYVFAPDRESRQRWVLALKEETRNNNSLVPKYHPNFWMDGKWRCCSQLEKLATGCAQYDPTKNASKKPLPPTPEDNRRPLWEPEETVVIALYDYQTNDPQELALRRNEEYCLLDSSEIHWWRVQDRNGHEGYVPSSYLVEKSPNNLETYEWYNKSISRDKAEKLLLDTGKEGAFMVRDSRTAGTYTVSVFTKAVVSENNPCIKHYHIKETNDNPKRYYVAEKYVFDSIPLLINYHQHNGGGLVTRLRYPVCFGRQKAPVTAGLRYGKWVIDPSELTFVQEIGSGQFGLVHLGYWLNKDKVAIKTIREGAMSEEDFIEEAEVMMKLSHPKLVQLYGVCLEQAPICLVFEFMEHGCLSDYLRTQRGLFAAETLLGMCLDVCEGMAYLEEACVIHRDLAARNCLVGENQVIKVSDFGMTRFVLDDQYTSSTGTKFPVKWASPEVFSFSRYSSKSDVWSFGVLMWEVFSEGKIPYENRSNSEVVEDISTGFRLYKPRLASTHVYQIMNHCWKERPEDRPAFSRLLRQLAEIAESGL
UniProt P19784, whole entry, species assumed: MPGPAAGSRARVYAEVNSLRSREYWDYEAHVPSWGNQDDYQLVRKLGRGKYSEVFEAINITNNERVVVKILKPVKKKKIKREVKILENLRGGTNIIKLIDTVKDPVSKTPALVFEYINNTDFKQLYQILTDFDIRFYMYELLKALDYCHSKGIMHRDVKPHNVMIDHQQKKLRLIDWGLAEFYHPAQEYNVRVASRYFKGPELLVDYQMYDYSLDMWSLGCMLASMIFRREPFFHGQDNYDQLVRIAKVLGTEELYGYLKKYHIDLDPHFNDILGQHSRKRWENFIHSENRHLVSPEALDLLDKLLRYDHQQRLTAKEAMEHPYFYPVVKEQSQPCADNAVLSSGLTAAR
UniProt P51813, whole entry, species assumed: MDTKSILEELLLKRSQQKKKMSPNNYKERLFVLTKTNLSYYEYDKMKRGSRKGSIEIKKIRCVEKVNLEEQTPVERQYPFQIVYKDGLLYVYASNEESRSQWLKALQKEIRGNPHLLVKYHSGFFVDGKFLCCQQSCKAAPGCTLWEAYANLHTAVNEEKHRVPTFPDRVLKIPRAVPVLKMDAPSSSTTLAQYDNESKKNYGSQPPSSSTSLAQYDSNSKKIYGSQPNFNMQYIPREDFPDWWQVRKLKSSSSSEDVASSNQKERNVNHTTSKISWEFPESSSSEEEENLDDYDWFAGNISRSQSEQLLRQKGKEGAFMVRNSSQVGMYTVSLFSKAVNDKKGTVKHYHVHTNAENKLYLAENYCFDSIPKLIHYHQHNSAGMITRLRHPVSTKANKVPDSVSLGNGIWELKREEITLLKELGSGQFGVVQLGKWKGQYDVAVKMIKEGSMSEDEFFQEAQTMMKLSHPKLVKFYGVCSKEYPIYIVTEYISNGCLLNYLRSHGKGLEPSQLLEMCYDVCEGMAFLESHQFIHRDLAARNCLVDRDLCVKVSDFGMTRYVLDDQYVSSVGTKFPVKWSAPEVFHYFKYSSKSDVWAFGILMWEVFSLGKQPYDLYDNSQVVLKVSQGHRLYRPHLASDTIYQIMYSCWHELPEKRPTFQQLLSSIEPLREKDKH
UniProt Q06187, whole entry, species assumed: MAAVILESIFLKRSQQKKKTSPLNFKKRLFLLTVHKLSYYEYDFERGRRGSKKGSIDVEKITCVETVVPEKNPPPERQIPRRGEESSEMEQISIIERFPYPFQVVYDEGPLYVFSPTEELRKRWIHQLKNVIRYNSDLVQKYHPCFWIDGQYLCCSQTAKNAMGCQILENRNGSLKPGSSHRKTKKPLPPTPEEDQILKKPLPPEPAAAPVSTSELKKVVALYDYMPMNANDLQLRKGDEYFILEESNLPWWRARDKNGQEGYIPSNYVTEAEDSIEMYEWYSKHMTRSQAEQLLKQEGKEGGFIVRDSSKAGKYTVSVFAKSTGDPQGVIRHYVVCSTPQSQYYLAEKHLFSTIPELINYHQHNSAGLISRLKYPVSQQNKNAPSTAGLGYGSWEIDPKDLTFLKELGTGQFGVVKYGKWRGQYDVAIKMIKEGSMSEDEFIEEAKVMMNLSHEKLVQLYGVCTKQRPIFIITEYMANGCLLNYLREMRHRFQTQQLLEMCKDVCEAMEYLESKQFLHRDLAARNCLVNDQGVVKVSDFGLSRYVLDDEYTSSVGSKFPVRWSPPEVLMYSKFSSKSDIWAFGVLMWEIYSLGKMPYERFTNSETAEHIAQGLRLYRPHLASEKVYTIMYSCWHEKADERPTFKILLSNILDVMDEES
UniProt P07948, whole entry, species assumed: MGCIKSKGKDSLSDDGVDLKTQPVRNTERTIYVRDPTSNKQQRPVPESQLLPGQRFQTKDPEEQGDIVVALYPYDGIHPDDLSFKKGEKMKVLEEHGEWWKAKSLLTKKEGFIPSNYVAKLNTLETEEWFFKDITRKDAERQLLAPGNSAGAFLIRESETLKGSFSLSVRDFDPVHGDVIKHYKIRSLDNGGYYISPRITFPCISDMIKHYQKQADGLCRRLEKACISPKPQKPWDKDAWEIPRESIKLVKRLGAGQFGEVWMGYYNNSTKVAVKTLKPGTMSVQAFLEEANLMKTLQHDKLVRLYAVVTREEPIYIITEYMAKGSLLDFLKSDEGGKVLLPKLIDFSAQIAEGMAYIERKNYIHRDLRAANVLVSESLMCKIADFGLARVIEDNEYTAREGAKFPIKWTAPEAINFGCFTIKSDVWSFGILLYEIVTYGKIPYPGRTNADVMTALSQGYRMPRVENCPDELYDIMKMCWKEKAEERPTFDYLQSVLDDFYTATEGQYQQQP
UniProt Q14164, whole entry, species assumed: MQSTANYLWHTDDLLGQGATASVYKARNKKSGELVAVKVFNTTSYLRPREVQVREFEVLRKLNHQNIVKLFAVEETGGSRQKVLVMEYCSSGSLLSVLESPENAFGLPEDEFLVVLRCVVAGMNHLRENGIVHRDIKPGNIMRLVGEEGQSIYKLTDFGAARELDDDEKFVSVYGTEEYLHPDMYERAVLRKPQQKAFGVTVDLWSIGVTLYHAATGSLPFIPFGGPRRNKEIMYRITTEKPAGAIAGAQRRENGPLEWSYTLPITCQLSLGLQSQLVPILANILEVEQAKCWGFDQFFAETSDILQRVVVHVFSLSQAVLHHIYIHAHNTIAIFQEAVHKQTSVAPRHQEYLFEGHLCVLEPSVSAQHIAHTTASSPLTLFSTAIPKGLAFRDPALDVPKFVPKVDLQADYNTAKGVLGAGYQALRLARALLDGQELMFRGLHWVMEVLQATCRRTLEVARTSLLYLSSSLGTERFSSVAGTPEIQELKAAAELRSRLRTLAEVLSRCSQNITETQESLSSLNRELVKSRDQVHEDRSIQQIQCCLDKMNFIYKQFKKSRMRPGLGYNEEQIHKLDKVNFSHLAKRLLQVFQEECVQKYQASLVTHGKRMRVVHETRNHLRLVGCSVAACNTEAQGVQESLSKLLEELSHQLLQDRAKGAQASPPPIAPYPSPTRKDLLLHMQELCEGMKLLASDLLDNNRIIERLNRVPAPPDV

Test [1] deals with GSK3B (Homo sapiens (Human), UniProt P49841). To be noted: ATP at Km, peptide 1.5 uM; read-out: LLE GSK3B (IC50). The method, then: (§1) In addition, compounds of the present invention, such as particular compounds disclosed in the preceding examples, were evaluated for their effectiveness as inhibitors of kinase receptor activity.
(§2) The analyses were performed in U-bottom 384-well plates. The final assay volume was 30 μl prepared from 15 μl additions of enzyme and substrates (fluoresceinated peptide and ATP) and test compounds in assay buffer (20 mM HEPES pH 7.4, 10 mM MgCl2, 0.015% Brij35 and 4 mM DTT). The reaction was initiated by the combination of purified protein kinase with substrates and test compounds. The reaction was incubated at room temperature for 60 min. and terminated by adding 30 μl of 35 mM EDTA to each sample. The reaction mixture was analyzed on the Caliper LABCHIP® 3000 (Caliper, Hopkinton, Mass.) by electrophoretic separation of the fluorescent substrate and phosphorylated product. Inhibition data were calculated by comparison to no enzyme control reactions for 100% inhibition and vehicle-only reactions for 0% inhibition. The ATP was used at a final concentration equivalent to the Km and the peptide substrate concentration was 1.5 μM. […] Compounds were dissolved at 10 mM in dimethylsulfoxide (DMSO) and evaluated at eleven concentrations. IC50 values were derived by non-linear regression analysis.

Test [2] concerns the target IRAK-4 (Homo sapiens (Human), UniProt Q9NWZ3). To be noted: ATP at Km, peptide 1.5 uM; read-out: LLE IRAK-4 (IC50). Here is the method: as §1, §2
For test [3], the target named is JAK3 (Homo sapiens (Human), UniProt P52333). Conditions: ATP at Km, peptide 1.5 uM; read-out: LLE_JAK3 (IC50).
Test [4] has as its target Lck (Homo sapiens (Human), UniProt P06239). To be noted: ATP at Km, peptide 1.5 uM; read-out: LLE_Lck (IC50).
Test [5] has as its target CDK2E (Homo sapiens (Human), UniProt P24941). To be noted: ATP at Km, peptide 1.5 uM; read-out: LLE_CDK2E (IC50).
For test [6], the target named is TYK2 (Homo sapiens (Human), UniProt P29597). To be noted: ATP at Km, peptide 1.5 uM; read-out: LLE_TYK2_887 (IC50).
Test [7] has as its target ITK (Homo sapiens (Human), UniProt Q08881). Conditions: ATP at Km, peptide 1.5 uM; read-out: LLE_ITK (IC50).
For test [8], the target named is CK2A2 (Homo sapiens (Human), UniProt P19784). To be noted: ATP at Km, peptide 1.5 uM; read-out: LLE_CK2A2 (IC50). An excerpt:
IC50 values were derived by non-linear regression analysis.

The target in test [9] is BMX (Homo sapiens (Human), UniProt P51813). To be noted: ATP at Km, peptide 1.5 uM; read-out: LLE_BMX (IC50).
The target in test [10] is BTK (Homo sapiens (Human), UniProt Q06187). Conditions: ATP at Km, peptide 1.5 uM; read-out: LLE_BTK (IC50).
Test [11] deals with LYNA (Homo sapiens (Human), UniProt P07948). To be noted: ATP at Km, peptide 1.5 uM; read-out: LLE_LYNA (IC50).
Test [12] has as its target IRAK1 (Homo sapiens (Human), UniProt P51617). Conditions: ATP at Km, peptide 1.5 uM. Here is the method:
as §1, §2

The target in test [13] is IKKE (Homo sapiens (Human), UniProt Q14164). Conditions: ATP at Km, peptide 1.5 uM; read-out: LLE IKKE (IC50). The method, then:
as §1, §2

The target in test [14] is TEC (Homo sapiens (Human), UniProt P42680). Conditions: ATP at Km, peptide 1.5 uM; read-out: LLE_TEC (IC50).

Where two headings read alike, the source gives them in different places. Some results are limits rather than exact numbers.

Regarding `NS(=O)(=O)c1cncc(-c2nc(NCc3ccccn3)c3c(-c4ccccc4)cccc3n2)c1` [Example 7, 5-(5-Phenyl-4-(pyridin-2-ylmethylamino)quinazolin-2-yl)pyridine-3-sulfonamide], the IC50 in test [1] was at least 50 µM; in test [2] it was at least 50 µM; in test [3], at least 50 µM; in test [4], at least 50 µM; in test [5], at least 50 µM; in test [6], 50 µM. Besides, the IC50 in [7] is at least 50 µM; in test [8], 50 µM; in test [9], at least 50 µM; in test [10] it was at least 50 µM; in test [11], 50 µM.
Turning to `c1ccc(-c2cccc3nc(-c4cncnc4)nc(NCc4ccccn4)c23)cc1` [Example 1, 5-Phenyl-N-(pyridin-2-ylmethyl)-2-(pyrimidin-5-yl)quinazolin-4-amine], the IC50 in [1] came to 50 µM; in test [2] it was 50 µM; in test [12] (first section of Table 4, read-out: LLE IRAK1 (IC50)) it was 50 µM; in test [12] (second section of Table 4, read-out: LLE_IRAK1 (IC50)), 50 µM; in [13], 50 µM; in test [14] it was 50 µM.

Values taken from patent US10214511B2, “Quinazolines as potassium ion channel inhibitors” (Bristol-Myers Squibb Company, priority 2009, dated 2019).
